# Measurements published in PMC4535766, “Antiprotozoal Activity Profiling of Approved Drugs: A Starting Point toward Drug Repositioning” (PLoS ONE, 2015).
# Tested on: P. falciparum strain K1
# Test: In vitro activity against P. falciparum, serial drug dilution assay
compound,measurement,value
CN[C@H]1CC[C@@H](c2ccc(Cl)c(Cl)c2)c2ccccc21 [Sertraline],Activity against P. falciparum (in words),micromolar range
